{"source": "patent US9783495B2", "about": "“Treatment for lipodystrophy” (Cadila Healthcare Limited, priority 2011, dated 2017)", "origin": "cited, not measured here", "test_system": "HIV-infected men with central obesity and low testosterone levels", "details": "transdermal gel 10 g daily, 24 weeks; vs placebo; cited from earlier work"}
{"compound": "C[C@]12CC[C@H]3[C@@H](CCC4=CC(=O)CC[C@@]43C)[C@@H]1CC[C@@H]2O", "note": "[testosterone]", "values": [{"measurement": "changes in lipid levels, fasting blood glucose levels, insulin levels, or insulin resistance", "value": "no statistically significant differences"}]}
